{
  "source": "patent US20090162336A1",
  "about": "(published 2009)",
  "key": {"[1]": {"target": "the molecule itself", "test": "SDS gel without DTT, chemical cross-linking, gel filtration"}, "[2]": {"target": "the molecule itself", "test": "self-assembly, negative stain electron microscopy"}},
  "data": [
    {"protein": "construct K12 (other, human, range 244-274;range 306-394; 121 residues; Q244-Y394 without the second repeat V275-S305) MQTAPVPMPDLKNVKSKIGSTENLKHQPGGGKVQIVYKPVDLSKVTSKCGSLGNIHHKPGGGQVEVKSEKLDFKDRVQSKIGSLDNITHVPGGGNKKIETHKLTFRENAKAKTDHGAEIVY", "values": [
      {"measurement": "binding result", "setting": "[1]", "result": "binds"}
    ]},
    {"protein": "K12 dimers cross-linked with PDM (other, human, Cys322 to Cys322 cross-linked by PDM, range 244-274;range 306-394; also called K12 PDM dimer; PDM dimers) MQTAPVPMPDLKNVKSKIGSTENLKHQPGGGKVQIVYKPVDLSKVTSKCGSLGNIHHKPGGGQVEVKSEKLDFKDRVQSKIGSLDNITHVPGGGNKKIETHKLTFRENAKAKTDHGAEIVY", "values": [
      {"measurement": "binding result", "setting": "[2]", "result": "binds"}
    ]},
    {"protein": "construct K11 (other, human, range 244-394; 152 residues, four repeats) MQTAPVPMPDLKNVKSKIGSTENLKHQPGGGKVQIINKKLDLSNVQSKCGSKDNIKHVPGGGSVQIVYKPVDLSKVTSKCGSLGNIHHKPGGGQVEVKSEKLDFKDRVQSKIGSLDNITHVPGGGNKKIETHKLTFRENAKAKTDHGAEIVY", "values": [
      {"measurement": "binding result", "setting": "[2]", "result": "binds"}
    ]}
  ]
}
